Tested on: A549 epithelial cells
Assay: LDH release
Assay type: cell-based, human

**Q.** How did the “effect on LDH release induced by 50 μg/ml LL-37” value (A549, 10% FBS, 24 h, mean of two separate experiments) turn out when “Apolipoprotein A-1: obtained by delipidating HDL with 2:1 chloroform:methanol” was run?
**A.** Its value is “unable to block”.

**Q.** What about the “effect on induction of cell death (LDH release) by LL-37” value (A549, absence of serum, data not shown) of the same substance?
**A.** Its value is “but not apolipoprotein A-1, was able to reduce”.
